Source: ChEMBL document CHEMBL1687735, “Resistance to colistin in Acinetobacter baumannii associated with mutations in the PmrAB two-component system” (Antimicrob Agents Chemother, 2009)

Assays:
[1] = system: Acinetobacter baumannii; settings: AB0057
[2] = system: Acinetobacter baumannii; settings: ATCC 17978
[3] = system: Acinetobacter baumannii; settings: ATCC 17978; remark: listed apart in the source
[4] = system: Acinetobacter baumannii; settings: AB0057; remark: listed apart in the source
[5] = system: Acinetobacter baumannii; settings: AB0057; remark: listed apart in the source
[6] = system: Acinetobacter baumannii; settings: AB0057; remark: listed apart in the source
[7] = system: Acinetobacter baumannii; settings: ATCC 17978; remark: listed apart in the source
[8] = system: Acinetobacter baumannii; settings: AB0057; remark: listed apart in the source
[9] = system: Acinetobacter baumannii; settings: ATCC 17978; remark: listed apart in the source
[10] = system: Acinetobacter baumannii; settings: AB0057; remark: listed apart in the source
[11] = system: Pseudomonas aeruginosa; settings: ATCC 27853
[12] = system: Acinetobacter baumannii; settings: ATCC 17978; remark: listed apart in the source
[13] = system: Pseudomonas aeruginosa; settings: ATCC 27853; remark: listed apart in the source
[14] = system: Acinetobacter baumannii; settings: ATCC 17978; remark: listed apart in the source
[15] = system: Pseudomonas aeruginosa; settings: ATCC 27853; remark: listed apart in the source
[16] = system: Acinetobacter baumannii; settings: AB0057, 1.4 ug/ml
[17] = system: Pseudomonas aeruginosa; settings: ATCC 27853; remark: listed apart in the source

## COLISTIN SULFATE
[1]
  MIC: 0.25 µg/mL
[2]
  MIC: 2 µg/mL
[3]
  MIC: 0.75 µg/mL
[4]
  MIC: 64 µg/mL
[5]
  MIC: 1 µg/mL
[6]
  MIC: 1.5 µg/mL
[7]
  MIC: 0.5 µg/mL
[8]
  MIC: 0.5 µg/mL
[9]
  MIC: 1 µg/mL
[10]
  MIC: 1 µg/mL
[11]
  MIC: 1 µg/mL
[12]
  MIC: 0.25 µg/mL
[13]
  MIC: 0.25 µg/mL
[14]
  MIC: 64 µg/mL
[15]
  MIC: 2 µg/mL
[16]
  T1/2: 5 min
[17]
  MIC: 0.25 µg/mL
